# Experimental data: PubChem BioAssay AID1381 (University of Pittsburgh Molecular Library Screening Center, 2008)
# The entries are a selection whose mix differs from that of the whole data set. Activity calls are given as the source filed them.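 Rule for the calls: active = plate z-score of nuclear minus cytoplasmic receptor signal below a set negative limit, without overly bright fluorescence or cell loss (cut at about -3.5 in these data, passing the limit was not always enough); inactive = the rest, inconclusive results apart.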
# Assay: inhibitors of GR-EGFP nuclear translocation, primary screen, dynein cargo transport inhibitor project, imaging, high-content, 3617.4 mouse cells (AID 1381)
# Details: active compounds read low, stimulated with dexamethasone, 1 µM; at 20 µM unless noted
row,SMILES,z-score
1,O=P1(Nc2ncccn2)COc2ccccc2OC1,inactive: -1.52
2,CN1CCCCC1COC(=O)C1(O)c2ccccc2CCc2ccccc21 (stereo not drawn),inactive: 0.467
3,COc1ccccc1OP(C)(=O)Nc1c(C)cccc1C (stereo not drawn),inactive: -0.899 [at 50 µM]
4,Nc1cccc([As](=O)(O)c2ccccc2)c1,inactive: 0.128
5,CP(=O)(Nc1ccc(SC(F)(F)F)cc1)Oc1ccccc1 (stereo not drawn),inactive: -0.728
6,CCCOc1ccc(NP(C)(=O)Oc2ccc(Cl)cc2)cc1 (stereo not drawn),inactive: 3.63
7,O=P1(Nc2ccc(Br)cn2)COc2ccccc2OC1,inactive: -1.4
8,Cc1ccc(OCC(=O)OC2CN3CCC2CC3)cc1 (stereo not drawn),inactive: -0.189 [at 50 µM]
9,O=[As](O)(c1cccs1)c1cccs1,inactive: -0.0476
10,Cc1nn(-c2ccccc2)c2c1P(=O)(N1CCOCC1)N(C)C(c1ccccc1)=N2 (stereo not drawn),inactive: -0.152 [at 50 µM]
11,CC1CCC(C(C)C)C(OP(=O)(Nc2ccccn2)c2ccccc2)C1 (stereo not drawn),inactive: -1.34
12,COc1cc(C2NCCC3(OCCO3)C2(C)C)cc(OC)c1OC.O=[N+]([O-])c1cc([N+](=O)[O-])c(O)c([N+](=O)[O-])c1 (stereo not drawn),inactive: 1.06
13,O=[N+]([O-])c1cc([N+](=O)[O-])c(Nc2nnnn2CCO)c([N+](=O)[O-])c1,inactive: 1.26
14,CN(C)C1(CNC(=O)c2ccc(S(C)(=O)=O)cc2)CCCCC1,inactive: 0.71
15,CCOC(=O)C(CC)C1=NC(C)(C)Cc2ccccc21.O=[N+]([O-])c1cc([N+](=O)[O-])c(O)c([N+](=O)[O-])c1 (stereo not drawn),inactive: 0.831
16,O=C(/C=C/c1ccccc1)OC1CN2CCC1CC2 (stereo not drawn),inactive: 0.478
17,CC(C)/C=N\N=C(\N)N[N+](=O)[O-],inactive: -0.391
18,O=[As](O)(c1ccccc1Br)c1ccccc1Br,inactive: -0.199
19,CC1(CBr)Cn2c(nc3ccccc3c2=O)S1 (stereo not drawn),inactive: -1.43 [at 50 µM]
20,Cc1nc2ccc3ccccc3c2s1.O=[N+]([O-])c1cc([N+](=O)[O-])c(O)c([N+](=O)[O-])c1,inactive: -0.403
21,O=P1(Nc2ccccn2)COc2ccccc2OC1,inactive: -0.401
22,O=[N+]([O-])c1cc([N+](=O)[O-])c(-n2nnc3ccccc32)c([N+](=O)[O-])c1,active: -4.48
23,CCOP(=O)(Nc1ccc(C)cn1)OCC,inactive: -0.396
24,Clc1n[nH]nc1-c1nn[nH][15n]1,inactive: -0.258
25,CC(C)(C)C(=O)NC(Sc1ncccn1)C(Cl)(Cl)Cl (stereo not drawn),inactive: 2.29

row,SMILES,z-score
1,CP(=O)(Nc1cccc(Br)c1)Oc1ccccc1 (stereo not drawn),inactive: -0.253
2,Cc1cc(C)cc(OP(C)(=O)Nc2ccccn2)c1 (stereo not drawn),inactive: -0.0952 [at 50 µM]
3,Cc1ccc(NCCc2c([N+](=O)[O-])cc([N+](=O)[O-])cc2[N+](=O)[O-])cc1,inactive: -0.583
4,Nc1cccc2c([As](=O)(O)O)cccc12,inactive: -0.27
5,CCCOP(=S)(Nc1nc(N)cc(=O)[nH]1)OCCC,inactive: 0.203
6,Cc1ccc(C)c(NP(C)(=O)Oc2ccccc2)c1 (stereo not drawn),inactive: -0.817 [at 50 µM]
7,CCOP(=O)(Nc1cccc2ccccc12)OCC,inactive: 0.632
8,O=C(OC1CN2CCC1CC2)c1ccc(Cl)cc1 (stereo not drawn),inactive: 0.154
9,COc1cc(C(=O)NCC2(N3CCOCC3)CCCCC2)cc(Cl)c1OC(C)C,inactive: 0.173
10,O=[As](O)(O)c1cccnc1,inactive: 0.621
11,COc1ccccc1OP(C)(=O)Nc1cccc(Br)c1 (stereo not drawn),inactive: -0.257
12,O=[As](O)(c1cccc(O)c1)c1cccc(O)c1,inactive: -0.28
13,Cc1cccc(OCC(=O)OC2CN3CCC2CC3)c1 (stereo not drawn),inactive: 0.109
14,Cc1cc(C)cc(OP(C)(=O)Nc2ccc(C)cc2C)c1 (stereo not drawn),inactive: -1.42
15,CCOC(=O)c1ccc(NP(C)(=O)Oc2cc(C)cc(C)c2)cc1 (stereo not drawn),inactive: -0.521
16,NC(=O)Nc1ccc([As](=O)(O)O)cc1,inactive: -0.664
17,CN(C(=O)Cc1ccccc1)[C@@H]1CC[C@]2(CCCO2)C[C@H]1N1CCCC1,inactive: -0.0902
18,CCOP1(=S)c2c(C)nn(CCC#N)c2N=C(c2ccc(F)cc2)N1C (stereo not drawn),inactive: 0.0452
19,O=[N+]([O-])c1ccc2c(c1)nnn2O,inactive: 0.00203 [at 50 µM]
20,CC1=NCCc2c1[nH]c1ccccc21.O=[N+]([O-])c1cc([N+](=O)[O-])c(O)c([N+](=O)[O-])c1,inactive: 0.174
21,O=C(O)c1cccc(Nc2c([N+](=O)[O-])cc([N+](=O)[O-])cc2[N+](=O)[O-])c1,inactive: -0.00461
22,CCOP1(=S)c2c(C)nn(CCC#N)c2N=C(c2ccccc2F)N1C (stereo not drawn),inactive: 0.622 [at 50 µM]
23,O=P(Nc1nccs1)(c1ccccc1)c1nc2ccccc2s1 (stereo not drawn),inactive: -0.921
24,O=P(Nc1nccs1)(Oc1ccccc1)Oc1ccccc1,inactive: 0.105
25,CS(=O)(=O)c1cc([N+](=O)[O-])c2no[n+]([O-])c2c1,inactive: -0.346

row,SMILES,z-score
1,O=C(O)COc1ccc([As](=O)(O)O)cc1[N+](=O)[O-],inactive: -0.403
2,Nc1ccccc1[As](=O)(O)c1ccccc1,inactive: 0.25
3,CCOC(=O)c1ccc(NP(C)(=O)Oc2ccccc2)cc1 (stereo not drawn),inactive: -0.266
4,ClCCSc1nnc(-c2cccnc2)o1,inactive: -0.323 [at 50 µM]
5,COc1ccccc1OP(C)(=O)Nc1ccc(C)cc1 (stereo not drawn),inactive: -0.16
6,Cc1ccc(NP(C)(=O)Oc2ccccc2)c(C)c1 (stereo not drawn),inactive: -0.615
7,CC(C)c1ccc(OP(=O)(Nc2ccccn2)Oc2ccccc2F)cc1 (stereo not drawn),inactive: -0.559
8,CCN(CC)C(=S)SC(NC=O)C(Cl)(Cl)Cl (stereo not drawn),inactive: -2.19
9,CC(C)NC(=O)NP(=O)(Oc1ccccc1)Oc1ccccc1,inactive: -0.423
10,COc1ccccc1OP(C)(=O)Nc1cc(Cl)ccc1C (stereo not drawn),inactive: 0.0362
11,O=[N+]([O-])c1cc([N+](=O)[O-])c(-c2ccn[nH]2)s1,inactive: -1.12
12,COc1ccc(OP(C)(=O)Nc2cccc(F)c2)cc1 (stereo not drawn),inactive: -0.88
13,Cc1cc(C)cc(OP(C)(N)=O)c1 (stereo not drawn),inactive: 1.17
14,O=[As](O)(c1ccc(O)cc1)c1ccccc1O,inactive: 1.17
15,C[As](=O)(O)c1cccc(C(=O)O)c1,inactive: 1.78
16,CC(C)(C)c1ccc(OP(C)(=O)Nc2ccc(SC(F)(F)F)cc2)cc1 (stereo not drawn),inactive: -1.24
17,Cc1ccc(OP(=O)(Nc2ccc([N+](=O)[O-])cn2)Oc2ccc(C)cc2)cc1,inactive: -0.257
18,Cc1cccc(C)c1OP(C)(N)=O (stereo not drawn),inactive: 1.7
19,Cc1ccc2nc3c(c(C)c2c1)CC(C(Cl)Cl)S3 (stereo not drawn),inactive: 0.454
20,O=[N+]([O-])c1ccc2c(c1)C=Nc1ccccc1O2,inactive: -0.827
21,COc1ccc(N/C(=N/P(=O)(N2CCOCC2)N2CCOCC2)N2CCOCC2)cc1,inactive: 0.3
22,Cc1c2c(nc3ccccc13)SC(C(Cl)Cl)C2 (stereo not drawn),inactive: -1.2
23,O=C(OC1CN2CCC1CC2)C12CC3CC(CC(C3)C1)C2 (stereo not drawn),inactive: 0.228
24,Cc1cc(=O)[nH]c(N[N+](=O)[O-])n1,inactive: 0.158
25,CCN(CC)CCCOC(=O)C(O)(c1ccccc1)c1ccccc1,inactive: -0.895

row,SMILES,z-score
1,COc1ccc2nc(NP(=O)(c3ccccc3)c3ccccc3)sc2c1,inactive: -0.723
2,COc1cc(I)ccc1[As](=O)(O)O,inactive: 0.112
3,CCOP(C)(=S)SCC(=O)NC(C)C(=O)O (stereo not drawn),inactive: 0.504
4,CCOC(=O)c1ccc(NP(C)(=O)Oc2ccc(OC)cc2)cc1 (stereo not drawn),inactive: -0.188
5,CCOC(=O)c1ccc(NC(=O)C(C)(CCl)SC)cc1 (stereo not drawn),inactive: -0.476
6,CCC(C)N(CC(C)C)C(=S)SC(NC(C)=O)C(Cl)(Cl)Cl (stereo not drawn),inactive: -0.201 [at 50 µM]
7,CP(=O)(Nc1ccccn1)Oc1ccc(Cl)cc1 (stereo not drawn),inactive: 0.325 [at 50 µM]
8,CP(=O)(Nc1ccc(SC(F)(F)F)cc1)Oc1ccc(Cl)cc1 (stereo not drawn),inactive: -0.192
9,Cc1cccc(C)c1OP(C)(=O)Nc1ccc(SC(F)(F)F)cc1 (stereo not drawn),inactive: 1.32
10,COP1(=S)c2c(C)nn(CCC#N)c2N=C(c2ccc(F)cc2)N1C (stereo not drawn),inactive: 1.01 [at 50 µM]
11,CP(=O)(Oc1ccccc1)OC(c1ccccc1)C(F)(F)F (stereo not drawn),inactive: 0.887
12,CCc1ccc(OP(C)(=O)N2CCN(c3ccc([N+](=O)[O-])cc3)CC2)cc1 (stereo not drawn),inactive: -1.16
13,CP(=O)(NC(=O)Nc1ccccc1)Oc1ccccc1 (stereo not drawn),inactive: -1.27
14,O=C(COc1ccccc1)OC1CN2CCC1CC2 (stereo not drawn),inactive: -0.682
15,Cc1cc(C)cc(OP(C)(=O)Nc2ccc(SC(F)(F)F)cc2)c1 (stereo not drawn),inactive: 1.91
16,CP(=S)(Nn1cnnc1)Oc1ccccc1 (stereo not drawn),inactive: -0.281 [at 50 µM]
17,CCOC(=O)Nc1cccc([As](=O)(O)O)c1,inactive: 0.723
18,Cc1cc(SC(NC=O)C(Cl)(Cl)Cl)ncn1 (stereo not drawn),inactive: -0.0407
19,O=P(Nc1ccccn1)(c1cccc2ccccc12)c1cccc2ccccc12,inactive: 2
20,COc1ccccc1OP(C)(=O)Nc1ccccc1 (stereo not drawn),inactive: 0.173
21,CP(=O)(Nc1ccccc1Br)Oc1ccccc1 (stereo not drawn),inactive: 0.433
22,O=[N+]([O-])c1ccc(Nc2ccc(Oc3ccc([N+](=O)[O-])cc3[N+](=O)[O-])cc2)c([N+](=O)[O-])c1,inactive: -2.15
23,CCOC(=O)Nc1ccc([As](=O)(O)O)c(O)c1,inactive: 0.0429
